Test [1] relates to Glioblastoma Multiforme (Grade 4 of 4). The test is described as follows: IUdR as radiosensitizer with RT in patients with high grade primary brain tumors, vs historical RT-alone controls. The note with it: patients with Glioblastoma Multiforme (Grade 4 of 4), RT alone 9. The class given is in vivo, human. From the text: (§1) Example 1: Efficacy of IUdR as a Radiosensitizing Agent Compared to Historical RT-Alone Controls for Treatment of High Grade Primary Brain Tumors
(§2) IUdR requires continuous IV infusion—not an ideal potential candidate for clinical use.

Test [2] has as its system Anaplastic Astroyctomas (Grade 3 of 4). Described as above. The class given is in vivo, human. The settings on record: patients with Anaplastic Astroyctomas (Grade 3 of 4), RT alone 24.
Excerpt: as §1, §2

In the case of `O=c1[nH]c(=O)n([C@H]2C[C@H](O)[C@@H](CO)O2)cc1I` [IUdR, 5-iodo-2′-deoxyuridine], the results for the “Median Survival (Months)” value in test [1] and in test [2] were 15 Months and 39 Months, respectively.

The record behind these values is patent publication US20170266284A1, “PERSONALIZED METHODS FOR TREATING DISEASE BY RADIOSENSITIZATION” (Shuttle Pharmaceuticals, LLC, priority 2014, published 2017).
